The text below walks through data of patent US10835582B2, “Peptide for preventing hearing loss, and composition comprising same” (GemVax & KAEL CO., LTD., priority 2015, dated 2020).

Holding throughout (format): in vivo, C57/BL6 mice
Experiment [1] has as its system hair cells of the cochlea, kanamycin ototoxic animal model. Briefly: Biopsy of cochlea and ampulla (hair cells, H&E) in the kanamycin ototoxic animal model. The note with it: kanamycin 800 mg/kg S.C. + PEP1 10 mg/kg I.P. twice daily for 14 days. As to the method:
For an experiment, C57/BL6 mice (4-week-old to 6-week-old, body weight of 15 g to 25 g, male) were prepared. As an ototoxic drug, kanamycin in the form of kanamycin sulfate was dissolved in saline solution at a concentration of 40 mg/ml was prepared as a preparation for 800 mg/kg injection administration, and the peptide synthesized according to Example 1, i.e., PEP1, was prepared as a preparation for injection administration by dissolving 100 mg of PEP1 in 10 ml PBS.
Kanamycin, which is an ototoxic drug, and the peptide according to the present invention, i.e., PEP1, were administered to the prepared experimental animals after dividing the animals into experimental groups.
Experimental Group 1: kanamycin 800 mg/kg S.C (subcutaneous injection)+saline 0.1 ml/10 g mice I.P. (intraperitoneal injection)
Experimental Group 2: kanamycin 800 mg/kg S.C.+PEP1 10 mg/kg I.P.
A dose for each experimental group was injected twice daily for 14 days.
Three weeks after the experiment started, the mice were euthanized, and then blood samples were collected therefrom, the mice were subjected to perfusion fixation with 4% paraformaldehyde (pH 7.4) diluted with 0.1 M phosphate buffered saline, and an organ (the temporal bone) was extracted from each mouse.
To observe an overall structure of the cochlea and the vestibule, the mice were fixed in 4% paraformaldehyde (pH 7.4) at 4° C. for 24 hours, and then maintained in 0.135M EDTA for three days to allow decalcification to occur. Tissue blocks were made using an optical cutting temperature compound (OCT compound) as an embedding agent for freezing and then stored at −80° C. and made in slide forms, followed by H&E staining.
To quantitatively analyze the temporal bone on the left side, a whole mount of the cochlea was prepared. The cochlear bony labyrinth was cautiously separated from the cochlear membranous labyrinth using a micro-instrument and a microscope and the apical turn and the basal turn were separated. […]

The test system of experiment [2] is hearing threshold, kanamycin ototoxic animal model. Briefly: Auditory brainstem response (ABR) test in the kanamycin ototoxic animal model. As to conditions: kanamycin 800 mg/kg S.C. + PEP1 10 mg/kg I.P. twice daily for 14 days; 4, 8, 16, 32 kHz; up to 3 weeks; p<0.001 versus kanamycin + saline; FIG. 6. The procedure:
(§1) The auditory brainstem response (ABR) test used in experiments of the present invention to identify hearing loss is an accurate hearing test in which brainwaves from the nerve center of the brain are averaged, which can be obtained by auditory stimulation, and a threshold value of hearing is determined. As the threshold value increases, this indicates hearing loss is more severe.
For an experiment, C57/BL6 mice (4-week-old to 6-week-old, body weight of 15 g to 25 g, male) were prepared. As an ototoxic drug, kanamycin in the form of kanamycin sulfate was dissolved in saline solution at a concentration of 40 mg/ml was prepared as a preparation for 800 mg/kg injection administration, and the peptide synthesized according to Example 1, i.e., PEP1, was prepared as a preparation for injection administration by dissolving 100 mg of PEP1 in 10 ml PBS. […]
An ABR test was performed before injection, 1 week after injection, 2 weeks after injection, and 3 weeks after injection. Hearing was evaluated using negative stimuli of 4 kHz, 8 kHz, 16 kHz, and 32 kHz and, in ABR, the smallest stimulus intensity showing waveform #5 was determined as a threshold. Prior to drug administration, baseline hearing was measured in all the groups, and measurement was performed after anesthetizing each group via intraperitoneal injection of isoflorane. […]

For experiment [3], the system named is hair cells at basal, mid, and apex of the cochlea, ototoxic animal model administered kanamycin and furosemide. Briefly: Biopsy of hair cell viability in the kanamycin and furosemide ototoxic animal model (Experiments D1 and D3). As to conditions: for viability of hair cells at basal, mid, and apex of the cochlea (confocal observation): PEP1 10 mg/kg or dexamethasone 15 mg/kg S.C. As to the method: (§2) For an experiment, an ototoxic animal model was prepared by intraperitoneally administering 1000 mg/kg of kanamycin to C57/BL6 mice (5-week-old, body weight of 15 g to 25 g, female) and injecting 100 mg/kg of furosemide thereinto within 30 minutes.
(§3) 24 ototoxic animal models were classified into experimental groups and a control as follows and an experiment was carried out. The experimental name was indicated as D1 (See FIG. 10).
(§4) Experimental Group 1: 8 ototoxic animal models administered 10 mg/kg of PEP1 via subcutaneous injection on day 1, day 2, and day 3, respectively, after administration of kanamycin and furosemide
Experimental Group 2: 8 ototoxic animal models administered 15 mg/kg of dexamethasone via subcutaneous administration on day 1, day 2, and day 3, respectively after administration of kanamycin and furosemide
Control 1: 8 ototoxic animal models administered saline solution on day 1, day 2, and day 3, respectively after administration of kanamycin and furosemide
In addition, to evaluate experimental results (i.e., a difference in effects according to administration time of an experimental substance) after administering an ototoxic drug to ototoxic animal models and taking more time for the ototoxicity to progress, 24 ototoxic animal models were classified into experimental groups and a control and an experiment was carried out. The experimental name was indicated as D3 (see FIG. 10).
Experimental Group 3: 8 ototoxic animal models administered 10 mg/kg of PEP1 via subcutaneous injection on day 3, day 4, and day 5, respectively after administration of kanamycin and furosemide
Experimental Group 4: 8 ototoxic animal models administered 15 mg/kg of dexamethasone via subcutaneous administration on day 3, day 4, and day 5, respectively after administration of kanamycin and furosemide
Control 2: 8 ototoxic animal models administered saline solution on day 3, day 4, and day 5, respectively after administration of kanamycin and furosemide
On day 14 after administration of kanamycin and furosemide, mice on which the ABR test was completed were euthanized, and then otic capsules were extracted therefrom and a degree of damage to hair cells was observed using a confocal scanning microscope.
Hearing threshold values measured in the ABR test and values of hair cells of each group measured in biopsy were statistically processed and significance thereof was confirmed. In this case, an ANOVA test was used.

Experiment [4] concerns hearing threshold, ototoxic animal model administered kanamycin and furosemide. Briefly: ABR test in the kanamycin and furosemide ototoxic animal model (Experiments D1 and D3). The procedure: as §1, §2, §3, §4
Experimental Group 2: 8 ototoxic animal models administered 15 mg/kg of dexamethasone via subcutaneous administration on day 1, day 2, and day 3, respectively after administration of kanamycin and furosemide […]
An ABR test was performed prior to administration of kanamycin and furosemide (day 0), on day 7 after the administration, and on day 14 after the administration (The test was performed in the same manner for both Experiments D1 and D3). Hearing was evaluated using negative stimuli of 8 kHz, 16 kHz, and 32 kHz, and, in ABR, the smallest stimulus intensity showing waveform #5 was determined as a threshold. Prior to drug administration, baseline hearing was measured in all the groups, and measurement was performed after anesthetizing each group via intraperitoneal injection of isoflorane.
Hearing threshold values measured in the ABR test and values of hair cells of each group measured in biopsy were statistically processed and significance thereof was confirmed. […]

With `CC[C@H](C)[C@H](NC(=O)[C@H](Cc1ccccc1)NC(=O)[C@H](CCCNC(=N)N)NC(=O)[C@H](CC(C)C)NC(=O)[C@H](CCCNC(=N)N)NC(=O)[C@H](CO)NC(=O)[C@@H](NC(=O)[C@H](CC(C)C)NC(=O)[C@H](CC(C)C)NC(=O)[C@H](C)NC(=O)[C@@H]1CCCN1C(=O)[C@H](CCCNC(=N)N)NC(=O)[C@H](C)NC(=O)[C@@H](N)CCC(=O)O)[C@@H](C)O)C(=O)N1CCC[C@H]1C(=O)N[C@@H](CCCCN)C(=O)O` [PEP1], the “H&E staining of frozen cochlear and ampullar tissue sections” value in experiment [1] (FIG. 5) was “normal cochlear hair cells and normal ampullar sensory epithelium were conserved”. In experiment [1] (biopsy after three weeks, FIG. 2), the “observation of hair cells at the basal turn, the middle turn, and the apical turn of the cochlea” value is “no damage to hair cells was observed in all the sites”. Further, the “number of hair cells at the middle turn and the basal turn of the cochlea, versus the kanamycin + saline group” value in experiment [1] (p<0.001, FIG. 3) is “greater number of hair cells”. Moreover, the “change in ABR hearing threshold value over time after drug administration” value in experiment [2] is on record as “a change in the threshold value was insignificant over time”. For the same compound, the “viability of hair cells at basal, mid, and apex of the cochlea (confocal observation)” value is “normal hair cells were observed” in experiment [3] (Experiment D1: dosing on days 1, 2, 3, biopsy on day 14, FIG. 14) and “normal hair cells were observed” in experiment [3] (Experiment D3: dosing on days 3, 4, 5, biopsy on day 14, FIG. 15). Further, the “percentage of normal hair cells at basal, mid, and apex of the cochlea, versus the saline solution control” value in experiment [3] (Experiment D1, 10 mg/kg S.C. on days 1, 2, 3, significant at mid and basal (p=0.006), FIG. 16) is on record as “higher than that of saline solution-administered Control 1”; in experiment [3] (Experiment D3, 10 mg/kg S.C. on days 3, 4, 5, significant at mid and basal (p=0.011), FIG. 17), “higher than that of saline solution-administered Control 2”. The “percentage of normal hair cells, versus the dexamethasone group” value was “higher than that of dexamethasone-administered Experimental Group 2” in experiment [3] (Experiment D1, PEP1 10 mg/kg versus dexamethasone 15 mg/kg S.C. on days 1, 2, 3, FIG. 16) and “higher than that of dexamethasone-administered Experimental Group 4” in experiment [3] (Experiment D3, PEP1 10 mg/kg versus dexamethasone 15 mg/kg S.C. on days 3, 4, 5, FIG. 17). Also, in experiment [3] (biopsy on day 14, 10 mg/kg S.C., FIG. 18), the “percentage of normal hair cells according to administration time of PEP1, Experiment D1 versus D3” value was “did not show a significant difference”. Further, the “ABR hearing threshold value on day 14, versus the saline solution control” value in experiment [4] (Experiment D1: 10 mg/kg S.C. on days 1, 2, 3 after kanamycin and furosemide, significant at 32 kHz (p=0.008), FIG. 11) is “smaller hearing threshold value”. Besides, in experiment [4] (Experiment D3: 10 mg/kg S.C. on days 3, 4, 5 after kanamycin and furosemide, significant at 8 kHz and 16 kHz (p=0.014), FIG. 12), the “ABR hearing threshold value on day 14, versus the saline solution control and the dexamethasone group” value was “smaller hearing threshold value”. Moreover, in experiment [4] (day 0, day 7 and day 14, 10 mg/kg S.C., FIG. 13), the “ABR hearing threshold values according to administration time of PEP1, Experiment D1 versus D3” value is recorded as “no significant difference in hearing threshold values”.
